System: autophagy
Assay: Autophagy assays identifying autophagy modulators
Type: cell-based

Oc1c(Cl)cc(Cl)c(Cl)c1Cc1c(O)c(Cl)cc(Cl)c1Cl [hexachlorophene]
activity as autophagy modulator: agonists or inducers of autophagy

From patent publication US10610564B2, “IRGM and precision autophagy controls for antimicrobial and inflammatory disease states and methods of detection of autophagy” (STC.UNM, priority 2015, dated 2020)
